The values that follow are results of earlier work, collected in PMC3594649 (Molecular pharmaceutics, 2013).

The conditions of this data set: rifampicin treatment, humans; cited from earlier work.

On to `CO[C@H]1/C=C/O[C@@]2(C)Oc3c(C)c(O)c4c(O)c(c(/C=N/N5CCN(C)CC5)c(O)c4c3C2=O)NC(=O)/C(C)=C\C=C\[C@H](C)[C@H](O)[C@@H](C)[C@@H](O)[C@@H](C)[C@H](OC(C)=O)[C@@H]1C` [rifampicin], for which the “decrease of midazolam AUC” value is listed as 70%.
